# Reference: publication PMC6278354, “Investigation of New Orexin 2 Receptor Modulators Using In Silico and In Vitro Methods” (Molecules, 2018)
# Assay: in vitro
# Conditions: PAMPA, pH 7.4
smiles,measurement,value
"CCN(C)C(=O)Oc1cccc([C@H](C)N(C)C)c1 [Rivastigmine, reference compound]",Papp,20 ± 2.1 ×10⁻⁶ cm/s
